{
  "source": "PubChem BioAssay AID2462",
  "about": "(Broad Institute, 2010)",
  "note": "Only a part is listed here, and it is no random draw. Activity calls are given as the source filed them.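 The calls were made as follows: active = over half of replicate activation scores above 10%, or exactly half above 10 with the replicate mean above 10; inconclusive = replicate mean below 10 yet half the replicates above 10; inactive = over half of replicates below 10.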",
  "data": [
    {"assay": "inducers of caspase signal in A1-primed MEFs – cell-based, luminescence, HTS, A1 inhibitor project, primary screen (AID 2462)", "conditions": "MEF A1-2A-BIM cells, Caspase-Glo 3/7 luminescence, 3 h; active compounds read high; percent of clofoctol response, vehicle zero; concentration not given here", "values": [
      {"smiles": "Cc1ccc2nc3c(c(C)c2c1)CC(C(Cl)Cl)S3", "note": "(centres undefined)", "caspase activation": "inactive: -0.398%"},
      {"smiles": "CP(=S)(Nn1cnnc1)Oc1ccccc1", "note": "(centres undefined)", "caspase activation": "inactive: -0.863%"},
      {"smiles": "CCOC(=O)Nc1cccc([As](=O)(O)O)c1", "caspase activation": "inactive: -0.765%"},
      {"smiles": "COc1ccccc1OP(C)(=O)Nc1ccccc1", "note": "(centres undefined)", "caspase activation": "inactive: 1.54%"},
      {"smiles": "O=P(Nc1ccccn1)(c1cccc2ccccc12)c1cccc2ccccc12", "caspase activation": "inactive: 0.49%"},
      {"smiles": "Cc1cc(SC(NC=O)C(Cl)(Cl)Cl)ncn1", "note": "(centres undefined)", "caspase activation": "inactive: 0.147%"},
      {"smiles": "O=[N+]([O-])c1ccc(Nc2ccc(Oc3ccc([N+](=O)[O-])cc3[N+](=O)[O-])cc2)c([N+](=O)[O-])c1", "caspase activation": "inactive: 0.787%"},
      {"smiles": "CP(=O)(Nc1ccccc1Br)Oc1ccccc1", "note": "(centres undefined)", "caspase activation": "inactive: 0.364%"},
      {"smiles": "CCOC(=O)Nc1ccc([As](=O)(O)O)c(O)c1", "caspase activation": "inactive: -0.36%"},
      {"smiles": "Cc1cc(SC(NC(=O)c2ccccc2)C(Cl)(Cl)Cl)nc(C(C)C)n1", "note": "(centres undefined)", "caspase activation": "inactive: 0.439%"},
      {"smiles": "O=C(OC1CN2CCC1CC2)c1cccc([N+](=O)[O-])c1", "note": "(centres undefined)", "caspase activation": "inactive: 1.16%"},
      {"smiles": "CCOP(C)(=S)SCC(=O)NC(C)C(=O)O", "note": "(centres undefined)", "caspase activation": "inactive: 0.124%"},
      {"smiles": "CCOC(=O)c1ccc(NC(=O)C(C)(CCl)SC)cc1", "note": "(centres undefined)", "caspase activation": "inactive: -1.56%"},
      {"smiles": "CCOC(=O)c1ccc(NP(C)(=O)Oc2ccc(OC)cc2)cc1", "note": "(centres undefined)", "caspase activation": "inactive: -0.484%"},
      {"smiles": "O=[N+]([O-])c1cc([N+](=O)[O-])c(O)c([N+](=O)[O-])c1.c1ccc(Oc2ccncc2)cc1", "caspase activation": "inactive: -0.00869%"},
      {"smiles": "CCC(C)N(CC(C)C)C(=S)SC(NC(C)=O)C(Cl)(Cl)Cl", "note": "(centres undefined)", "caspase activation": "inactive: 0.0449%"},
      {"smiles": "CP(=O)(Nc1ccccn1)Oc1ccc(Cl)cc1", "note": "(centres undefined)", "caspase activation": "inactive: 0.135%"},
      {"smiles": "CP(=O)(Oc1ccccc1)OC(c1ccccc1)C(F)(F)F", "note": "(centres undefined)", "caspase activation": "inactive: -0.161%"},
      {"smiles": "COP1(=S)c2c(C)nn(CCC#N)c2N=C(c2ccc(F)cc2)N1C", "note": "(centres undefined)", "caspase activation": "inactive: -0.0163%"},
      {"smiles": "Cc1cccc(C)c1OP(C)(=O)Nc1ccc(SC(F)(F)F)cc1", "note": "(centres undefined)", "caspase activation": "inactive: -0.183%"},
      {"smiles": "CP(=O)(Nc1ccc(SC(F)(F)F)cc1)Oc1ccc(Cl)cc1", "note": "(centres undefined)", "caspase activation": "inactive: 0.871%"},
      {"smiles": "O=C(Nc1ccncc1[N+](=O)[O-])c1ccc([N+](=O)[O-])cc1[N+](=O)[O-]", "caspase activation": "inactive: -1.42%"},
      {"smiles": "Cc1cc(C)cc(OP(C)(=O)Nc2ccc(SC(F)(F)F)cc2)c1", "note": "(centres undefined)", "caspase activation": "inactive: 0.735%"},
      {"smiles": "O=C(COc1ccccc1)OC1CN2CCC1CC2", "note": "(centres undefined)", "caspase activation": "inactive: 0.43%"},
      {"smiles": "CP(=O)(NC(=O)Nc1ccccc1)Oc1ccccc1", "note": "(centres undefined)", "caspase activation": "inactive: 0.0866%"},
      {"smiles": "CCc1ccc(OP(C)(=O)N2CCN(c3ccc([N+](=O)[O-])cc3)CC2)cc1", "note": "(centres undefined)", "caspase activation": "inactive: -0.452%"},
      {"smiles": "CP(=O)(Nc1ccc(Cl)cc1)Oc1ccc(F)cc1", "note": "(centres undefined)", "caspase activation": "inactive: 0.63%"},
      {"smiles": "CCN(/C(=N/P(=O)(N1CCOCC1)N1CCOCC1)N1CCOCC1)c1ccc(OC)cc1", "caspase activation": "inactive: 0.81%"},
      {"smiles": "C[N+]1=C2C=CC=CC=C2SC12C([N+](=O)[O-])=CC([N+](=O)[O-])=C[C-]2[N+](=O)[O-]", "note": "(centres undefined)", "caspase activation": "inactive: -0.334%"},
      {"smiles": "COc1ccccc1OP(C)(=O)Nc1ccccc1Br", "note": "(centres undefined)", "caspase activation": "inactive: 0.375%"},
      {"smiles": "CC(C)(C)c1ccc(OP(C)(=O)O)cc1", "caspase activation": "inactive: -0.797%"},
      {"smiles": "Nc1ccc([As](=O)(O)c2ccc(N)cc2)cc1", "caspase activation": "inactive: -0.483%"},
      {"smiles": "CC1CCN(C(=O)Oc2c(Cl)cc(Cl)c3cccnc23)CC1", "caspase activation": "inactive: 0.868%"},
      {"smiles": "CN(C)C(=O)OCCc1n(C)cc[n+]1C", "caspase activation": "inactive: 1.69%"},
      {"smiles": "CN(C)C(=O)c1c([N+](=O)[O-])cc([N+](=O)[O-])cc1[N+](=O)[O-]", "caspase activation": "inactive: 0.416%"},
      {"smiles": "CC(C)=N/N=C(\\N)N[N+](=O)[O-]", "caspase activation": "inactive: 0.236%"},
      {"smiles": "COc1ccc(OP(C)(=O)Nc2ccc(Br)cc2)cc1", "note": "(centres undefined)", "caspase activation": "inactive: 0.35%"},
      {"smiles": "COc1ccc(C2=NCC(CBr)S2)cc1", "note": "(centres undefined)", "caspase activation": "inactive: 0.0234%"},
      {"smiles": "CCN(CC)CC(O)COC(=O)C(O)(c1ccccc1)C1CCCCC1", "note": "(centres undefined)", "caspase activation": "inactive: 0.189%"},
      {"smiles": "CCc1ccc(OP(C)(=O)Nc2cccnc2)cc1", "note": "(centres undefined)", "caspase activation": "inactive: 0.418%"},
      {"smiles": "CCc1nc2c(n1)c1c(non1O)c1c2no[n+]1[O-]", "caspase activation": "inactive: -1.19%"},
      {"smiles": "O=[N+]([O-])c1cc([N+](=O)[O-])c(CCNc2ccccc2)c([N+](=O)[O-])c1", "caspase activation": "inactive: -1.18%"},
      {"smiles": "CP(=O)(Oc1ccccc1)N1CCOC1=O", "note": "(centres undefined)", "caspase activation": "inactive: 0.795%"},
      {"smiles": "Cc1ccc(NP(=O)(Oc2ccccc2)Oc2ccccc2)nc1", "caspase activation": "inactive: -0.726%"},
      {"smiles": "O=C(OCCCN1CCCC1)C(O)(c1ccccc1)C1CCCCC1", "note": "(centres undefined)", "caspase activation": "inactive: -0.883%"},
      {"smiles": "O=[N+]([O-])c1cccc2n[nH]nc12", "caspase activation": "inactive: 0.584%"},
      {"smiles": "CC(=O)N1C2C3N(C(C)=O)C1C1N(C(C)=O)C(C(N1C(C)=O)N3C(C)=O)N2C(C)=O", "caspase activation": "inactive: 0.131%"},
      {"smiles": "COc1ccccc1OP(C)(=O)Nc1c(C)n(C)n(-c2ccccc2)c1=O", "note": "(centres undefined)", "caspase activation": "inactive: 1.39%"},
      {"smiles": "O=[N+]([O-])c1ncn(CCn2ncnc2[N+](=O)[O-])n1", "caspase activation": "inactive: 1.66%"}
    ]}
  ]
}
